Measurements taken from ChEMBL document CHEMBL1144321, “Synthesis and evaluation of novel peripherally restricted kappa-opioid receptor agonists” (Bioorg Med Chem Lett, 2005).

Amino acid sequences for entries named in this document (tags omitted). A change or cut given only in a name is not applied to a line headed by its entry.
UniProt P41145: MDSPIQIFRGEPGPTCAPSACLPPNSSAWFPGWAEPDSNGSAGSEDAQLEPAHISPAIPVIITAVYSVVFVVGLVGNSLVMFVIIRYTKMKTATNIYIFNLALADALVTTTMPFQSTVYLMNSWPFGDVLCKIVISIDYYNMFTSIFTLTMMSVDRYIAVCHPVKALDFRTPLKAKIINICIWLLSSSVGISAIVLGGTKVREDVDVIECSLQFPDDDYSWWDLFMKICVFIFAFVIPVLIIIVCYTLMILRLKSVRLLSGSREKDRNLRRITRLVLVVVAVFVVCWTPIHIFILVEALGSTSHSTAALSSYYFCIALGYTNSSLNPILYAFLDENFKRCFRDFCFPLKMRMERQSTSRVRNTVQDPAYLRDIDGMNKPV
UniProt P41143, whole entry, looked up: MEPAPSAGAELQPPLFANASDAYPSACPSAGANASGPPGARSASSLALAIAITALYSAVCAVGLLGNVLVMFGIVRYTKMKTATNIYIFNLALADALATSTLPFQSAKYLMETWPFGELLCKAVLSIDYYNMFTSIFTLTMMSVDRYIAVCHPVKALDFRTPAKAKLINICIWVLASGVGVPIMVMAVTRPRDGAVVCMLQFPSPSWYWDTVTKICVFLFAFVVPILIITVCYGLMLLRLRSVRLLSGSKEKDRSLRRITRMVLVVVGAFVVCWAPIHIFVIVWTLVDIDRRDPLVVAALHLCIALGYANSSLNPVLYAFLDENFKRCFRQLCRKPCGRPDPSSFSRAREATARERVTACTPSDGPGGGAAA
UniProt P35372, whole entry, looked up: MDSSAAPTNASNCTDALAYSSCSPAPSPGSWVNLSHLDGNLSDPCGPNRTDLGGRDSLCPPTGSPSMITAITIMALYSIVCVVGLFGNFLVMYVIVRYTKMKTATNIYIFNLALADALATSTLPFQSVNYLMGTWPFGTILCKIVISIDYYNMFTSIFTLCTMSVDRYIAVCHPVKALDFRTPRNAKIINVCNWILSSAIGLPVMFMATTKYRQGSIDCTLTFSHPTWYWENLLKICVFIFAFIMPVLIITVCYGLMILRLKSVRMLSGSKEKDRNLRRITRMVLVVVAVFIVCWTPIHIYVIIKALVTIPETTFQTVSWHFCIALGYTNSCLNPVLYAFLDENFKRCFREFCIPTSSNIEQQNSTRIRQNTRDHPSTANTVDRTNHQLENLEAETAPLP

Columns and labels:
[1] = biological target: Opioid receptors; delta & kappa (Homo sapiens) (UniProt P41145+P41143); assay: Selectivity ratio of inhibition of kappa opioid receptor to that of delta receptor was determined
[2] = biological target: Opioid receptors; mu & kappa (Homo sapiens) (UniProt P41145+P35372); assay: Selectivity ratio of inhibition of kappa opioid receptor to that of mu receptor was determined

SMILES	Ratio [1]	Ratio [2]
CN(C(=O)Cc1ccc(C(F)(F)F)cc1)[C@H](CN1CCCC1)c1cccc([N+](=O)[O-])c1	> 1000	920
CN(C(=O)Cc1ccc(C(F)(F)F)cc1)[C@H](CN1CCCC1)c1cccc(NS(N)(=O)=O)c1	> 1000	310
CN(C(=O)Cc1ccc(C(F)(F)F)cc1)C(CN1CCCC1)c1cccc(OCC(=O)O)c1 (racemic)	190	350
CN(C(=O)Cc1ccc(C(F)(F)F)cc1)[C@H](CN1CCCC1)c1ccccc1	> 1000	> 1000
CN(C(=O)Cc1ccc(Cl)c(Cl)c1)C(CN1CCCC1)c1cccc(OCC(=O)O)c1 (stereo not drawn) [ICI-204448]	69	162
CN(C(=O)Cc1ccc(C(F)(F)F)cc1)[C@H](CN1CCCC1)c1cccc(NS(C)(=O)=O)c1	> 1000	420
CN(C(=O)Cc1ccc(C(F)(F)F)cc1)[C@H](CN1CCCC1)c1cccc(N(CC(=O)O)CC(=O)O)c1	> 43	> 43
CN(C(=O)Cc1ccc(C(F)(F)F)cc1)[C@H](CN1CCCC1)c1cccc(NC(=O)CCC(=O)O)c1	> 1000	57
CN(C(=O)Cc1ccc(C(F)(F)F)cc1)C(CN1CCCC1)c1cccc(OCC(=O)OC(C)(C)C)c1 (racemic)	79	330
